Measurements: the OPERA property sets (Mansouri et al. 2018)

For O=[N+]([O-])c1cc([N+](=O)[O-])c2c([N+](=O)[O-])cccc2c1, the logP was 2.3.
